{
  "source": "paper PMC2615049",
  "biological_target": "Bovine cationic trypsin (bovine)",
  "assay": "equilibrium titration with spectrophotometric assay of residual free trypsin",
  "data": [
    {"substance": "Wild-type bovine pancreatic trypsin inhibitor (BPTI, aprotinin) (from UniProt P00974 36-93) (natural protein)", "values": [
      {"measurement": "Kd", "result": "< 0.01", "unit": "nM"}
    ]}
  ]
}
